Laboratory results as given in ChEMBL document CHEMBL1165960, “Identification of the three-dimensional pharmacophore of kappa-opioid receptor agonists” (Bioorg Med Chem, 2010).

The chains behind the UniProt entries cited, without tags or fusion partners.
UniProt P41145, whole entry: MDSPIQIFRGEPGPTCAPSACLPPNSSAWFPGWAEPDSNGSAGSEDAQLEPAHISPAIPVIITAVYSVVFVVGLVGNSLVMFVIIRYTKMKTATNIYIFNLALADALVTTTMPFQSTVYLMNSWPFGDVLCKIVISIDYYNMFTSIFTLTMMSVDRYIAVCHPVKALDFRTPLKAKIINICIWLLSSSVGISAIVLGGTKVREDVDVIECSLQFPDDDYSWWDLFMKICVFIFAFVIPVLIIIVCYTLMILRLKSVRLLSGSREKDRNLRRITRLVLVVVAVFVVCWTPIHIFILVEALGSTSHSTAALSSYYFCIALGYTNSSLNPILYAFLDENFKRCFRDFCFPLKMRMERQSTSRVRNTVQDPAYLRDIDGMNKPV

Target: Kappa-type opioid receptor (Homo sapiens, UniProt P41145)

**Q.** `CN(CCc1ccccc1)C(=O)[C@H]1C[C@@]23C=C[C@]1(O)[C@@H]1Oc4c(O)ccc5c4[C@@]12CCN(CC1CC1)[C@@H]3C5` was tested. Which Ki did it give?
**A.** Its Ki is 0.279 nM.
